Experimental data: BindingDB's records for doi:10.1016/s1097-2765(05)00089-4 (Mrc, 2000)

Sequences of proteins named here, by UniProt entry; tags and fusion partners are left off. A change or cut given only in a name is not applied to a line headed by its entry.
UniProt P48736: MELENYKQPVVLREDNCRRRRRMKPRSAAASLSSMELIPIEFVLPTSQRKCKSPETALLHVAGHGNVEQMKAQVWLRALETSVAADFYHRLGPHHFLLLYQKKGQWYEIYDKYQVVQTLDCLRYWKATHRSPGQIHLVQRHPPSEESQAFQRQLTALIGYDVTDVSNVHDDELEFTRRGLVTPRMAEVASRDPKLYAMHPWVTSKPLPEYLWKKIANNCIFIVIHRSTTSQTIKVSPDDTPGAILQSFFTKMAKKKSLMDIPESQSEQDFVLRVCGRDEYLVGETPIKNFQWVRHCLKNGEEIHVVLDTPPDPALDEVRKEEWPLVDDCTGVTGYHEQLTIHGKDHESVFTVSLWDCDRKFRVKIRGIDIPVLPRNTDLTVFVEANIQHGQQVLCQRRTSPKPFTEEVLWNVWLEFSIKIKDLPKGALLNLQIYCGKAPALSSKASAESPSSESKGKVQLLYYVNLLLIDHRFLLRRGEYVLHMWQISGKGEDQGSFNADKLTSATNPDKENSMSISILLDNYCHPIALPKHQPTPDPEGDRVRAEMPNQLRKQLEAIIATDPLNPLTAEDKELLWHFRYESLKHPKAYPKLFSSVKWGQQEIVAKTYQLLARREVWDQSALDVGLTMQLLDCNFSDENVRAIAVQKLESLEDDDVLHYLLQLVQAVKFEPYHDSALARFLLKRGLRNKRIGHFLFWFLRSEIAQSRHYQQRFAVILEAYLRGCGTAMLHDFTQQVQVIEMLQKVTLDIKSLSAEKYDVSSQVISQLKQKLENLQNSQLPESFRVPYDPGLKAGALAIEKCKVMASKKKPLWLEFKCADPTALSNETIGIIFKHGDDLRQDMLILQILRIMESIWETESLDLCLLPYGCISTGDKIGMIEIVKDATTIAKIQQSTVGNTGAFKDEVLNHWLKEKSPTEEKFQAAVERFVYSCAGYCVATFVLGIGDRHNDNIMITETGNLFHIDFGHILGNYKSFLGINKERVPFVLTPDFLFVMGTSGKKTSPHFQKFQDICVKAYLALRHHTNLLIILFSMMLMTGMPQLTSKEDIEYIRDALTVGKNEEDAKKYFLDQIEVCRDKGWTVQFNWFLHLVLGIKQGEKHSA

Molecular target: Phosphatidylinositol 4,5-bisphosphate 3-kinase catalytic subunit gamma isoform (Homo sapiens, UniProt P48736)
Experiment: Fluorescence Assays for Determination of Binding Affinity.
Conditions: pH 7.2; 20 °C

**Q.** `O=c1cc(N2CCOCC2)oc2c(-c3ccccc3)cccc12` was tested. Which Kd did it give?
**A.** 210 nM
